Compound activity: PubChem BioAssay, ICCB-Longwood Screening Facility, Harvard Medical School
GIV Gai3 FP: inhibitors of GIV GBA-motif binding to rat Galpha-i3; P08753; Galpha-i3/FITC-GIV peptide fluorescence polarization, 90 min; hits give low values; scaled: aluminum fluoride 0%, vehicle 100%; percent of control (FP), % (no concentration beside the values); hit rate 0.42% among 210,000; AID 1224905;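 active = replicate mean at 85% of control or lower, very high polarization wells dropped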;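 note: wells of about 15 µL received 100 nL stock; the first replicate is given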
HCMV NEC inh: cytomegalovirus nuclear egress complex inhibition; HTRF UL50-UL53 interaction, normalized percent inhibition; inhibition, % (test concentration not listed); 190,000 compounds, 0.15% hits; in the data active = inhibition above about 27%, passing the limit was not always enough
Sa growth inh: blocks Staphylococcus aureus growth; 170,000 compounds, 0.53% hits; relative growth, % (test concentration not listed); S. aureus RN4220 growth, OD600, 20 h, 42 °C; hits give low values;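 active = relative growth at most 50% at the other temperature and 20+ points below 30 °C, or under 10% at both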
GIV-Gai FP conf: confirmation of inhibitors of GIV binding to rat Galpha-i3. shares compounds with GIV Gai3 FP. FITC-GIV peptide binding to Galphai3, fluorescence polarization; hits give low values. fluorescence polarization, mP at 100 µM. 580 compounds, 38% hits;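 active = inhibition score of 15 or more, meaning 100 minus mean polarization as percent of control over three replicates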;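 note: lower mP means peptide displaced from Galphai3 so more inhibition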
GIV-Gai AS conf: confirmation of inhibitors of GIV binding to human Galpha-i3. shares compounds with GIV Gai3 FP. AlphaScreen Galphai3-GIV binding, purified proteins, 90 min; hits give low values. AlphaScreen counts at 100 µM. 580 compounds, 39% hits. AID 1259351;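 active = inhibition score at or above a set limit, where the score is 100 minus the three-replicate mean percent of control signal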
* marks the source's active call; other numbers are inactive results; x = no result given. Rows were chosen to be rich in hits. Some 0.7% of all compounds tested hit in one or more screens of this group.

Value order: GIV Gai3 FP	HCMV NEC inh	Sa growth inh	GIV-Gai FP conf	GIV-Gai AS conf
> CCCCNc1c2c3c(cccc3[nH]c1=O)C(=O)c1ccccc1-2
→ -48*	-58	103	x	x
> O=C1c2ccccc2-c2c(Nc3ccccc3)c(=O)[nH]c3cccc1c23
→ 111	x	x	x	x
> Cc1cccc(N2C(=O)N(Cc3cc(=O)n4ccccc4n3)c3ccccc3S2(=O)=O)c1
→ 102	x	82	x	x
> CCc1ccccc1N1C(=O)N(Cc2cc(=O)n3ccccc3n2)c2ccccc2S1(=O)=O
→ 87	x	87	82	31171
> O=C(CSc1nc2cc(C(=O)NCc3ccco3)ccc2c(=O)n1C1CCCCC1)c1ccccc1
→ 106	x	x	x	x
> CCOc1ccc(NC(=O)c2noc3ncnc(N4CCOCC4)c23)cc1
→ 110	13	x	x	x
> Cc1ccc(/C=C2\SC(=O)NC2=O)o1
→ x	-55	x	x	x
> Cc1ccc(/C=C2/SC(=O)NC2=S)o1
→ 80*	x	33	57*	2262*
> Cc1[nH]c2ccc(CNC(=O)Nc3ccc(F)cc3F)cc2c1C
→ 102	x	91	x	x
> CC1CCCN(S(=O)(=O)c2ccc(-c3nnc(C4CC4)o3)o2)C1 (stereo not drawn)
→ 105	x	x	x	x
> Cc1ccc(O)c(C=Nc2cc(C)on2)c1
→ 98	-9	114	x	x
> CCc1ccc(N=Cc2c(O)ccc3ccccc23)cc1
→ x	-9	x	x	x
> Cn1c(/N=C/c2c(O)ccc3ccccc23)nc2ccc(Br)cc21
→ 23*	20	125	25*	14331*
> Cc1cc(N=Cc2c(O)ccc3ccccc23)no1
→ -9.8*	103*	96	13*	20466*
> O=C(NCc1ccc2c(c1)OCO2)c1cccc(-c2nc(-c3ccc(F)cc3)no2)c1
→ 100	x	x	x	x
> O=C(CSc1nc(-c2ccccc2)nc2cc(=O)[nH]n12)Oc1ccc(Cl)cc1
→ 100	14	x	x	x
> Nc1ccc2c(c1)OC1(O)c3ccccc3C(=O)C21O (stereo not drawn)
→ x	-20	81	x	x
> O=C1CCCC2=C1C1(O)C(=O)c3ccccc3C1(O)O2 (stereo not drawn)
→ 59*	78*	95	54*	53411
> O=C(O)c1cccc(NC(=O)c2ccccc2C(=O)O)c1
→ 100	-13	89	x	x
> O=C(O)c1ccc(C(=O)Nc2cccc(Cl)c2)c(C(=O)O)c1
→ 64*	-40	81	62*	34772
> Cc1ccc(C)n1-c1ccsc1C(=O)O
→ 65*	-20	46*	11*	1766*
> Cc1cc(C)n(-c2cc(C(=O)O)ccc2C)n1
→ 100	21	93	x	x
> Cc1ccc(C(=O)O)cc1-n1c(C)ccc1C
→ 67*	-3	86	54*	3689*
> Cc1cc(=O)cc(C)n1-c1ccccc1O
→ x	-3	x	x	x
> Cc1ccc(C)n1-c1ccc(C(=O)O)cc1O
→ 31*	56*	90	50*	3903*
> Cc1ccc(C)n1-c1ccsc1C(=O)CC#N
→ 97	-15	x	x	x
> CN(CCc1ccccn1)C(=O)c1cc2c(s1)-c1ccccc1OC2
→ 108	-17	122	x	x
> CN(Cc1ccc(-c2ccc(Br)cc2)o1)C(=O)Cc1ccsc1
→ x	-35	56	x	x
> Cc1ccc(S(=O)(=O)NCCc2c(C)[nH]c3c(Cl)cccc23)c(C)c1C
→ 105	-6	x	x	x
> CC(=O)Nc1cccc(NC(=O)c2c(F)c(F)c(F)c(F)c2F)c1
→ x	-3	x	x	x
> Cn1c(-c2ccccc2)c(/C=N/NC(=O)c2cccs2)c2ccccc21
→ x	-25	85	x	x
> Cn1c(-c2ccccc2)c(/C=C2/C(=O)Oc3ccccc3C2=O)c2ccccc21
→ 44*	x	95	66	25749
> COc1cc(/C=C2/SC(=Nc3ccccc3)NC2=O)cc(Cl)c1O
→ 205	-48	x	x	x
> COc1ccc(/C=C2\C=C(c3ccccc3)N(c3ccc(Br)cc3C)C2=O)cc1Br
→ 110	x	x	x	x
> COc1ccc(/C=C2\C=C(c3ccccc3)N(c3ccc(Br)cc3C)C2=O)cc1
→ 34*	x	x	65	40529
> O=C(COc1ccc(/C=c2/sc3nc4ccccc4n3c2=O)cc1)N1CCCC1
→ 103	x	114	x	x
> O=C1CN(C(=O)CSCc2c(F)cccc2Cl)c2ccccc2N1
→ 90	-22	81	73	45374
> O=C1CN(C(=O)CSc2ncc(C(F)(F)F)cc2Cl)c2ccccc2N1
→ x	-2	77	x	x
> C=CCNC(=O)C1CCCN(C(=O)c2ccc(NS(=O)(=O)c3ccc4c(c3)CCCC4)cc2)C1 (stereo not drawn)
→ 105	x	x	x	x
> N#C/C(=C/c1ccc(-c2ccc(S(N)(=O)=O)cc2)o1)C(=O)Nc1cc(Cl)ccc1Cl
→ 75*	-15	98	80	30693
> N#C/C(=C\c1ccc(-c2cc(Cl)ccc2Cl)o1)C(=O)Nc1ccccc1C(=O)O
→ 113	-74	97	x	x
> CCOC(=O)c1ccccc1NC(=O)/C(C#N)=C/c1ccc(-c2ccc(Cl)cc2)o1
→ 76*	-19	95	31*	11443*
> Cc1ccc(NC(=O)/C(C#N)=C\c2ccc(-c3ccc(Cl)cc3)o2)c(C)c1
→ 106	-51	99	x	x
> O=C(Nc1cccc([N+](=O)[O-])c1)/C(=C/c1cccc([N+](=O)[O-])c1)NC(=O)c1ccccc1Br
→ 106	x	x	x	x
> O=C(Nc1ccc(-c2noc(C3CCC3)n2)cc1)Nc1ccc(Cl)cn1
→ 104	-19	x	x	x
> COc1ccc(-c2nnc(SCC(=O)Nc3cccc(C)c3C)nc2-c2ccc(OC)cc2)cc1
→ 119	x	x	x	x
> COc1ccc(-c2nnc(SCC(=O)Nc3ccc(C)cc3)nc2-c2ccc(OC)cc2)cc1
→ 91	x	x	65	47508
> O=S(=O)(c1ccc(NCc2ccc3c(c2)OCO3)nc1)N1CCCC1
→ x	7	134	x	x
> CCOC(=O)c1c(C)nc2c(c1-c1ccc(OC)c(OC)c1)C(=O)c1ccccc1-2
→ x	-22	76	x	x
> COC(=O)c1ccc(-c2c3c(nc4nc(N)[nH]c(=O)c24)-c2ccccc2C3=O)cc1
→ 75*	-75	80	75	26602

(list continues)
Value order: GIV Gai3 FP	HCMV NEC inh	Sa growth inh	GIV-Gai FP conf	GIV-Gai AS conf
> CC(Nc1ccc(Cl)cc1)C(=O)N/N=C/c1ccc2c(c1)OCO2 (stereo not drawn)
→ 102	-30	81	x	x
> S=C1NCc2ccsc2S1
→ 49*	-242	113	51*	31760*
> Nc1nc(NCc2ccccc2)c(I)c(=O)[nH]1
→ 50*	66*	98	46*	2457*
> O=c1[nH]c2ccccc2nc1NCc1ccccc1
→ 100	-29	81	x	x
> O=C(Cn1nc2c3ccccc3ncn2c1=O)Nc1cccc(Cl)c1
→ 100	9	x	x	x
> COc1ccc(C(=O)c2sc3nc(C)cc(C(F)(F)F)c3c2N)cc1OC
→ 62*	x	x	69	55081
> COC(=O)c1sc2nc(C)cc(C(F)(F)F)c2c1N
→ x	-13	76	x	x
> CCc1nc2sc(C(=O)Nc3cccc(C(F)(F)F)c3)c(N)c2cc1C
→ 108	x	x	x	x
> Cc1cc(C(F)(F)F)c2c(N)c(C(=O)Nc3cccc(C(F)(F)F)c3)sc2n1
→ 82*	x	x	63	56533
> CCCOc1ccc(C=Nc2ccc(N3CCN(CC)CC3)cc2)c(O)c1
→ x	12	89	x	x
> CCOc1ccccc1NC(=O)NCCn1c(-c2ccc(F)cc2)nc2ccccc21
→ 104	7	x	x	x
> COc1cccc(CNC(=O)C2CCCN(c3nnc(-n4c(C)ccc4C)s3)C2)c1 (stereo not drawn)
→ 105	-7	97	x	x

Rewritten with each value named: four of the compounds above.
> Cn1c(/N=C/c2c(O)ccc3ccccc23)nc2ccc(Br)cc21
  GIV Gai3 FP = 23*; HCMV NEC inh = 20; Sa growth inh = 125; GIV-Gai FP conf = 25*; GIV-Gai AS conf = 14331*
> Cc1cc(N=Cc2c(O)ccc3ccccc23)no1
  GIV Gai3 FP = -9.8*; HCMV NEC inh = 103*; Sa growth inh = 96; GIV-Gai FP conf = 13*; GIV-Gai AS conf = 20466*
> O=C(NCc1ccc2c(c1)OCO2)c1cccc(-c2nc(-c3ccc(F)cc3)no2)c1
  GIV Gai3 FP = 100; HCMV NEC inh = x; Sa growth inh = x; GIV-Gai FP conf = x; GIV-Gai AS conf = x
> O=C(CSc1nc(-c2ccccc2)nc2cc(=O)[nH]n12)Oc1ccc(Cl)cc1
  GIV Gai3 FP = 100; HCMV NEC inh = 14; Sa growth inh = x; GIV-Gai FP conf = x; GIV-Gai AS conf = x
